Experimental data reported in PubChem BioAssay (Tox21).
“And” between values parts separate entries of the source, which are not always exact repeats. Equal entries are not always repeated. The list shows a part of the results, in another mix than the full data. Inconclusive results are not listed. The source made the active and inactive calls. Unless noted, the call rests on the fitted dose curve; in most records, active means well fitted curve in the direction sought with a large enough effect in the repeat runs; inconclusive means weak or mixed curves; inactive means no such curve, though single readings can be large; an effect the other way counts as inactive or inconclusive.

Sequences of proteins named here, by UniProt entry; tags and fusion partners are left off.
UniProt P16473, whole entry: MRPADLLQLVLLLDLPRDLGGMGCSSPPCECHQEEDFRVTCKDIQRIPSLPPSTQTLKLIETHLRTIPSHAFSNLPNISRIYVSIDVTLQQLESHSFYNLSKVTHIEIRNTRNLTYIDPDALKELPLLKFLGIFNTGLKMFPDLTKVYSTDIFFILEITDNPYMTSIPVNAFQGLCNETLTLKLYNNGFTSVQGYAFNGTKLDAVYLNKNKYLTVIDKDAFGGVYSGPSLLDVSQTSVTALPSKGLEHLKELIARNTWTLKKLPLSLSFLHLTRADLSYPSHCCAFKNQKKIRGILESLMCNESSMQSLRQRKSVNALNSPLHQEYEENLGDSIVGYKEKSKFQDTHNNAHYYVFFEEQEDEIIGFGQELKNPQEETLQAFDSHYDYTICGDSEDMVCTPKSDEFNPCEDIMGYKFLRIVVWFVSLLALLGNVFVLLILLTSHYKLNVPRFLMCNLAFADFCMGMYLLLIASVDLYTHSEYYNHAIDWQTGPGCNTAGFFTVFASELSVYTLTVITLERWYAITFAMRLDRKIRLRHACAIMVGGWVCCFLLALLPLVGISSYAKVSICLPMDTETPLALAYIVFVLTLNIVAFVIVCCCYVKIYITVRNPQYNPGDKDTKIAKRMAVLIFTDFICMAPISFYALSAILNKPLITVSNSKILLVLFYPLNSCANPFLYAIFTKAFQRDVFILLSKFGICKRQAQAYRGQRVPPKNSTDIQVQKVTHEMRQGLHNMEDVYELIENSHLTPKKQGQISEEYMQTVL

Assays:
[1] = qHTS assay to identify small molecule antagonists of the estrogen related receptor signaling pathway with the pleiotropic PPARgamma coactivator (PGC) from Tox21 10K library - cell viability counter screen (AID 1224840; active means well fitted cell-killing curve with a large enough effect in the repeat runs, not every such curve was filed as active; further: nearly all actives have a fitted effect of over 40% in size); conditions: PGC/ERR reporter cells viability, CellTiter-Fluor, 17.5 h
In short: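 Here the PGC/ERR cells serve as a cytotoxicity control: they are exposed to compounds for 17.5 hours at 37 C, and live-cell signal is quantified using CellTiter-Fluor fluorescence.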

[2] = qHTS assay to identify small molecule antagonists of the estrogen related receptor signaling pathway with the pleiotropic PPARgamma coactivator (PGC) from Tox21 10K library (AID 1224841; call rule not given here; further: actives are mostly falling curves and most rising ones were filed inactive; nearly all actives have a fitted effect of over 50% in size); conditions: PGC/ERR reporter cell line, ONE-Glo luciferase, 18 h; series mostly up to 92.4 µM
[3] = qHTS assay to identify small molecule agonists of the estrogen related receptor signaling pathway with the pleiotropic PPARgamma coactivator (PGC) from Tox21 10K library (AID 1224842); conditions: PGC/ERR reporter cell line, luciferase ONE-Glo, 18 h; further: nearly all actives have a fitted effect of over 15% in size
In short: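 PGC/ERR reporter cell line, 2,000 cells per well, incubated 6 h at 37 C before 23 nL compound in DMSO was added. After 18 h at 37 C, One-Glo luminescence read following 30 min at room temperature.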

[4] = target: Thyrotropin receptor (Homo sapiens) (UniProt P16473); test: qHTS assay to identify small molecule agonists of the thyroid stimulating hormone receptor (TSHR) signaling pathway (AID 1224843; calls by dose curve; further: nearly all actives have a fitted effect of over 45% in size); conditions: TSHR-HEK293 cells, cAMP HTRF, agonist mode, 30 min
[5] = qHTS assay to identify small molecule agonists of H2AX - cell viability counter screen (AID 1224847; calls by dose curve;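 further: wild-type CHO-K1 cells; top concentration of the series differs between compounds; nearly all actives have a fitted effect of over 30% in size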); conditions: CHO-K1 viability, CellTiter-Glo luminescence, 3 h; at 154 µM (top of the series) unless noted
In short: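 Cells plated first: CHO-K1, 1000 per well in 10% FBS medium, incubated overnight at 37C. Then 15-point compound titration added (final DMSO 0.76%) for 3 hr. Finally CellTiter-Glo added and luminescence read.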

[6] = qHTS assay to identify small molecule agonists of the estrogen related receptor (ERR) signaling pathway from Tox21 library (AID 1224849; calls by dose curve; further: nearly all actives have a fitted effect of over 15% in size); conditions: ERR reporter cell line, ONE-Glo luciferase, 18 h
In short: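 Six hours post-seeding at 37 C/5% CO2, ERR cells receive DMSO-solubilised compounds; after 18 h at 37 C, ONE-Glo reagent is applied and luminescence recorded.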

[7] = qHTS RealTime-Glo MT Cell Viability Assay in HepG2 cells - 24 hour (AID 1224867); conditions: RealTime-Glo luminescence; further: nearly all actives have a fitted effect of over 50% in size
In short: (§1)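 HepG2 cells were seeded at 600 cells/well together with NanoLuc luciferase and a cell-permeant prosubstrate, preincubated 5 h at 37 C/5% CO2, then pin-dosed with compounds in DMSO. Nonlytic luminescence from viable cells was read at each time point.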

[8] = qHTS RealTime-Glo MT Cell Viability Assay in HEK293 cells - 32 hour (AID 1224868); conditions: RealTime-Glo luminescence, at 76.8 µM (top of the series); further: top concentration of the series differs between compounds; nearly all actives have a fitted effect of over 50% in size
In short: (§2)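 HEK293 cells were seeded at 600 cells/well together with NanoLuc luciferase and cell-permeant prosubstrate, preincubated 5 h at 37 C/5% CO2, then given compound in DMSO by pintool. Luminescence from viable-cell prosubstrate reduction was read repeatedly over 40 h.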

[9] = A CellTox Green Cytotoxicity Assay to monitor cytotoxicity in HEK293 cells - 0 hour (AID 1224869); conditions: CellTox Green fluorescence; series mostly up to 76.8 µM; further: nearly all actives have a fitted effect of over 50% in size; further: potency means the concentration at half of the fitted maximal effect
In short: (§3)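 Seeding of HEK293 cells together with cytotoxicity dye preceded a 5 h incubation at 37 C/5% CO2. Test compounds in DMSO were then added and fluorescence monitored across 40 h.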

[10] = qHTS RealTime-Glo MT Cell Viability Assay in HepG2 cells - 40 hour (AID 1224870); conditions: RealTime-Glo luminescence; at 76.8 µM (top of the series) unless noted; further: nearly all actives have a fitted effect of over 50% in size
In short: (§4)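 HepG2 cells (600/well) mixed with RealTime-Glo MT reagent, settled 5 h at 37 C/5% CO2 before compound addition. Nonlytic NanoLuc luminescence from viable-cell prosubstrate reduction read repeatedly during 40 h treatment at 37 C.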

[11] = A CellTox Green Cytotoxicity Assay to monitor cytotoxicity in HEK293 cells - 40 hour (AID 1224871); conditions: CellTox Green fluorescence; series mostly up to 76.8 µM; further: nearly all actives have a fitted effect of over 45% in size
In short: as §3

[12] = qHTS RealTime-Glo MT Cell Viability Assay in HEK293 cells - 16 hour (AID 1224872); conditions: RealTime-Glo luminescence; at 76.8 µM (top of the series) unless noted
In short: as §2

[13] = qHTS RealTime-Glo MT Cell Viability Assay in HepG2 cells - 8 hour (AID 1224873); conditions: RealTime-Glo luminescence; at 76.8 µM (top of the series) unless noted; further: nearly all actives have a fitted effect of over 55% in size
In short: as §4

[14] = A CellTox Green Cytotoxicity Assay to monitor cytotoxicity in HEK293 cells - 24 hour (AID 1224875); conditions: CellTox Green fluorescence; series mostly up to 76.8 µM; further: nearly all actives have a fitted effect of over 45% in size; further: potency means the concentration at half of the fitted maximal effect
In short: as §3

[15] = qHTS RealTime-Glo MT Cell Viability Assay in HepG2 cells - 32 hour (AID 1224877); conditions: RealTime-Glo luminescence; further: nearly all actives have a fitted effect of over 55% in size
In short: as §1

[16] = A CellTox Green Cytotoxicity Assay to monitor cytotoxicity in HepG2 cells - 24 hour (AID 1224878); conditions: CellTox Green fluorescence; series mostly up to 76.8 µM; further: nearly all actives have a fitted effect of over 45% in size; further: potency means the concentration at half of the fitted maximal effect
In short: (§5)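 Nonlytic assay: viable cells exclude the dye, so fluorescence scales with cell death. HepG2 at 600 cells/well, compounds added after 5 h, signal read across 40 h.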

[17] = A CellTox Green Cytotoxicity Assay to monitor cytotoxicity in HepG2 cells - 40 hour (AID 1224879); conditions: CellTox Green fluorescence; series mostly up to 76.8 µM; further: nearly all actives have a fitted effect of over 40% in size; further: potency means the concentration at half of the fitted maximal effect
In short: as §5

[18] = qHTS RealTime-Glo MT Cell Viability Assay in HEK293 cells - 0 hour (AID 1224880); conditions: RealTime-Glo luminescence; at 76.8 µM (top of the series) unless noted
In short: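 Tox21 screen in HEK293 using RealTime-Glo MT chemistry, with cells and reagent co-dispensed. Luminescence proportional to viable cell number was captured at intervals during 40 h compound exposure at 37 C.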

[19] = A CellTox Green Cytotoxicity Assay to monitor cytotoxicity in HepG2 cells - 0 hour (AID 1224882); conditions: CellTox Green fluorescence; series mostly up to 76.8 µM; further: nearly all actives have a fitted effect of over 35% in size; further: potency means the concentration at half of the fitted maximal effect
In short: as §5

[20] = A CellTox Green Cytotoxicity Assay to monitor cytotoxicity in HepG2 cells - 32 hour (AID 1224883); conditions: CellTox Green fluorescence; series mostly up to 76.8 µM; further: nearly all actives have a fitted effect of over 50% in size; further: potency means the concentration at half of the fitted maximal effect
In short: as §5
On the % scale 0 is the no-effect control and ±100 the full control effect.

CCOP(=O)(CC)OCC
inactive: viability change, negative = cytotoxic ([1]; at 92.4 µM (top of the series)) 0.48% | Potency [2] | activation ([3]; at 92.4 µM (top of the series)) 0.0679% | activation ([4]; at 92.4 µM (top of the series)) 11.2% | activity change, negative = cytotoxicity [5] -5.04% | activity change, positive = activation ([6]; at 92.4 µM (top of the series)) 5.03% | activity change, negative = cytotoxicity ([7]; at 76.8 µM (top of the series)) 1.04% | activity change, negative = cytotoxic [8] 7.13% | Potency [9] | activity change, negative = cytotoxic [10] 0.494% | Potency [11] | activity change, negative = cytotoxicity [12] 4.35% | viability change, negative = cytotoxic [13] 0.577% | Potency [14] | activity change, negative = cytotoxic ([15]; at 76.8 µM (top of the series)) 0.315% | Potency [16] | Potency [17] | activity change, negative = cytotoxicity [18] 3.54% | Potency [19] | Potency [20]

O=[N+]([O-])c1cccc([N+](=O)[O-])c1
active: Potency [9] 45.5 µM | Potency [14] 45.5 µM | Potency [16] 22.8 µM | Potency [17] 22.8 µM | Potency [19] 45.5 µM | Potency [20] 22.8 µM
inactive: viability change, negative = cytotoxic ([1]; at 92.4 µM (top of the series)) 4.17% | Potency [2] | activation ([3]; at 92.4 µM (top of the series)) 0.924% | activity change, negative = cytotoxicity [5] 0.597% | activity change, negative = cytotoxicity ([7]; at 76.8 µM (top of the series)) 4.39% | viability change, negative = cytotoxic [13] -0.989% | activity change, negative = cytotoxic ([15]; at 76.8 µM (top of the series)) 10.5%

CC(C)OP(C)(=O)OC(C)C
inactive: viability change, negative = cytotoxic ([1]; at 92.4 µM (top of the series)) -1.3% | activation ([3]; at 92.4 µM (top of the series)) -22.1% and 5.95% | activation ([4]; at 92.4 µM (top of the series)) -0.569% and -2.85% | activity change, negative = cytotoxicity [5] 2.13% and 4.01% | activity change, positive = activation ([6]; at 92.4 µM (top of the series)) -54.3% and 7.28% | activity change, negative = cytotoxic [8] 16.9% | Potency [9] | activity change, negative = cytotoxic [10] 0.591% and 1.03% | Potency [11] | activity change, negative = cytotoxicity [12] -19.2% and 17% | viability change, negative = cytotoxic [13] -3.57% and 1.64% | Potency [14] | Potency [16] | Potency [17] | activity change, negative = cytotoxicity [18] -4.09% and 11.3% | Potency [19] | Potency [20]

Nc1cc([N+](=O)[O-])cc([N+](=O)[O-])c1O
inactive: activation ([3]; at 92.4 µM (top of the series)) -11.9% | activation ([4]; at 92.4 µM (top of the series)) 3.86% | activity change, negative = cytotoxicity [5] -11.8% | activity change, positive = activation ([6]; at 92.4 µM (top of the series)) -26.3% | activity change, negative = cytotoxicity ([7]; at 76.8 µM (top of the series)) -11.3% | Potency [9] | activity change, negative = cytotoxic [10] -7.31% | Potency [11] | activity change, negative = cytotoxicity [12] -0.332% | viability change, negative = cytotoxic [13] -8.14% | Potency [14] | activity change, negative = cytotoxic ([15]; at 76.8 µM (top of the series)) -10.3% | Potency [16] | Potency [17] | activity change, negative = cytotoxicity [18] 2.68% | Potency [19] | Potency [20]

Cc1cccc([N+](=O)[O-])c1[N+](=O)[O-]
active: Potency [16] 26 µM | Potency [17] 32.7 µM | Potency [20] 29.2 µM
inactive: viability change, negative = cytotoxic ([1]; at 42.5 µM (top of the series)) -9.83% | activation ([3]; at 42.5 µM (top of the series)) -2.27% | activation ([4]; at 42.5 µM (top of the series)) 7.96% | activity change, positive = activation ([6]; at 42.5 µM (top of the series)) -17.3% | activity change, negative = cytotoxicity ([7]; at 35.3 µM (top of the series)) 5.37% | Potency [9] | activity change, negative = cytotoxic [10] 0.765% [at 35.3 µM] | Potency [11] | viability change, negative = cytotoxic [13] 4.8% [at 35.3 µM] | Potency [14] | activity change, negative = cytotoxic ([15]; at 35.3 µM (top of the series)) -7.42% | Potency [19]

Cc1ccc([N+](=O)[O-])cc1[N+](=O)[O-]
inactive: viability change, negative = cytotoxic ([1]; at 92.4 µM (top of the series)) 2.72% and 4.87% | Potency [2] | activation ([3]; at 92.4 µM (top of the series)) 1.36% and 0.116% | activity change, negative = cytotoxicity [5] -0.236% and 2.51% | activity change, positive = activation ([6]; at 92.4 µM (top of the series)) 0.906% and 4.61% | activity change, negative = cytotoxic [8] 1.34% and 4.88% | Potency [9] | activity change, negative = cytotoxic [10] -4.97% and 4.85% | Potency [11] | activity change, negative = cytotoxicity [12] 1.06% and -1.9% | viability change, negative = cytotoxic [13] 1.82% and -0.267% | Potency [14] | Potency [16] | Potency [17] | activity change, negative = cytotoxicity [18] 2.76% and 1.21% | Potency [19] | Potency [20]
